Results published in patent publication US20200170258A1 (SPOGEN BIOTECH, published 2020).

Legend:
Assay in all cases: cell-based or functional assay
[1] = biological target: FLS receptor at the plant cell surface (plant of Table 32 not stated)
[2] = biological target: FLAGELLIN SENSING 2 (FLS2) of corn (corn)
[3] = biological target: FLAGELLIN SENSING 2 (FLS2) of soybean (soybean)
[4] = biological target: Flagellin-sensing 2 (FLS2) of tomato (tomato)

B1: Bt.4Q7Flg22-Syn03 (peptide)
peptide: QRLSSGKRINSASDDAAGLAIA
- ROS activity (total RLU, % of Bt.4Q7Flg22 at 25 nM), peptide at 0.25 nM [1]: 14.9%
- ROS activity (total RLU, % of Bt.4Q7Flg22 at 25 nM), peptide at 0.5 nM [1]: 14.9%
- ROS activity (total RLU, % of Bt.4Q7Flg22 at 25 nM), peptide at 1 nM [1]: 41.5%
- ROS activity (total RLU, % of Bt.4Q7Flg22 at 25 nM), peptide at 5 nM [1]: 57%
- ROS activity (total RLU, % of Bt.4Q7Flg22 at 25 nM), peptide at 10 nM [1]: 85.7%
- ROS activity (total RLU, % of Bt.4Q7Flg22 at 25 nM), peptide at 25 nM [1]: 111%
- ROS activity (total RLU, % of Bt.4Q7Flg22 at 25 nM), peptide at 100 nM [1]: 162%
- ROS activity (total RLU, % of Bt.4Q7Flg22 at 25 nM), peptide at 1000 nM [1]: 97.7%

B2: Bt.4Q7Flg22-Syn01 (peptide)
peptide: DRLSSGKRINSAKDDAAGLAIA
- ROS activity assay with corn stalk tissue, RLU, 10 nM [2]: 17700 RLU
- ROS assay with soybean leaf tissue, RLU, 10 nM [3]: 62000 RLU
- ROS activity (total RLU, % of Bt.4Q7Flg22 at 25 nM), peptide at 0.25 nM [1]: 23.6%
- ROS activity (total RLU, % of Bt.4Q7Flg22 at 25 nM), peptide at 0.5 nM [1]: 55%
- ROS activity (total RLU, % of Bt.4Q7Flg22 at 25 nM), peptide at 1 nM [1]: 57%
- ROS activity (total RLU, % of Bt.4Q7Flg22 at 25 nM), peptide at 5 nM [1]: 113%
- ROS activity (total RLU, % of Bt.4Q7Flg22 at 25 nM), peptide at 10 nM [1]: 116%
- ROS activity (total RLU, % of Bt.4Q7Flg22 at 25 nM), peptide at 25 nM [1]: 118%
- ROS activity (total RLU, % of Bt.4Q7Flg22 at 25 nM), peptide at 100 nM [1]: 121%
- ROS activity (total RLU, % of Bt.4Q7Flg22 at 25 nM), peptide at 1000 nM [1]: 121%

B3: Bt.4Q7Flg22 (peptide)
peptide: DRLSSGKRINSASDDAAGLAIA
- ROS activity assay with corn stalk tissue, RLU, 10 nM [2]: 6030 RLU
- ROS activity in tomato leaf tissue, Average RLU value, 5 nM Flg polypeptide [4]: 33100 RLU
- ROS assay with soybean leaf tissue, RLU, 10 nM [3]: 10800 RLU
- ROS activity (total RLU, % of Bt.4Q7Flg22 at 25 nM), peptide at 0.25 nM [1]: 8.12%
- ROS activity (total RLU, % of Bt.4Q7Flg22 at 25 nM), peptide at 0.5 nM [1]: 14.9%
- ROS activity (total RLU, % of Bt.4Q7Flg22 at 25 nM), peptide at 1 nM [1]: 23.9%
- ROS activity (total RLU, % of Bt.4Q7Flg22 at 25 nM), peptide at 5 nM [1]: 57%
- ROS activity (total RLU, % of Bt.4Q7Flg22 at 25 nM), peptide at 10 nM [1]: 76.8%
- ROS activity (total RLU, % of Bt.4Q7Flg22 at 25 nM), peptide at 25 nM [1]: 100%
- ROS activity (total RLU, % of Bt.4Q7Flg22 at 25 nM), peptide at 100 nM [1]: 114%
- ROS activity (total RLU, % of Bt.4Q7Flg22 at 25 nM), peptide at 1000 nM [1]: 128%

B4: Ec.Flg22 (peptide)
peptide: ERLSSGLRINSAKDDAAGQAIA
- ROS activity in tomato leaf tissue, Average RLU value, 5 nM Flg polypeptide [4]: 426000 RLU

B5: Bt.4Q7Syn01Flg15 (peptide)
peptide: RINSAKDDAAGLAIA
- ROS activity assay with corn stalk tissue, RLU, 10 nM [2]: 14100 RLU
- ROS assay with soybean leaf tissue, RLU, 10 nM [3]: 43000 RLU
